Test results taken from patent US20200171133A1.

What was measured:
[1] = target: cation-independent mannose-6-phosphate receptor (CIMPR); assay: CIMPR affinity chromatography, M6P elution gradient, fractions read by GAA activity (4MU-α-glucose)
[2] = target: cation-independent mannose-6-phosphate receptor (CIMPR); assay: CIMPR affinity chromatography (FIG. 5B)
[3] = target: cation-independent mannose-6-phosphate receptor (CIMPR); assay: CIMPR affinity chromatography of several production batches
[4] = target: cation-independent mannose-6-phosphate receptor (CIMPR); assay: M6P receptor (CIMPR) plate binding assay, bound rhGAA read by GAA activity

Substance | percent of rhGAA bound to CIMPR column (eluted with M6P) [1] | percent of rhGAA that did not bind [1] | percent of rhGAA bound to CIMPR column (contained M6P) [2] | CIMPR receptor binding, percent [3] | Kd [4]
Lumizyme® (alglucosidase alfa, conventional rhGAA, Genzyme) (from UniProt P10253 57-952) | 22% | 78% |  |  | 
ATB200 rhGAA (recombinant human acid α-glucosidase produced in CHO cell line GA-ATB-200) (from UniProt P10253 57-952) (enzyme) |  |  | 70% | 70% | 2 to 4 nM
Myozyme® (alglucosidase alfa, conventional rhGAA, Genzyme) (from UniProt P10253 57-952) | 27% | 73% |  |  | 
